# Data as given in patent US9446087B2, “Anti-resorptive and bone building dietary supplements and methods of use” (priority 2006, dated 2016).
# B1: BMP2: BMP-2 used as positive control in the calvarial assay (protein, UniProt P12643 283-396, looked up)
# Bone morphogenetic protein 2: QAKHKQRKRLKSSCKRHPLYVDFSDVGWNDWIVAPPGYHAFYCHGECPFPLADHLNSTNHAIVQTLVNSVNSKIPKACCVPTELSAISMLYLDENEKVVLKNYQDMVVEGCGCR
# Tested on: Neonatal murine calvaria
# Test: Calvarial Assay to Measure Bone Growth
# Assay type: cell-based, Swiss white mice
# Settings: 50 μg/ml, positive control
# Description: Neonatal murine calvaria from 4 day old Swiss white mice are excised, placed into BGJ media (Sigma), and cut in half along the midline suture. One milliliter of BGJ media supplemented with 0.1% bovine serum albumin (BSA) is added to each well of a 12 well tissue culture plate (Costar) to which the relevant factors or vehicles are added. Each half calvaria is placed on a stainless steel grid in the above media at the media/air interface. Usually 4 bones per experimental group are used. Recombinant BMP-2 (5 μg/ml), FGF (100 ng/ml) or insulin (10 μg/ml) can be used as a positive stimulator of bone formation. Factors to be tested are added on Day 0 (the day of dissection) and media is changed at 24 and 96 hours (if a 7 day assay is required). Calvaria are maintained in humidified air (5% Co2), at 37° C. Following the period of incubation, the calvaria are then removed and fixed overnight in 10% formalin. The calvaria are then decalcified in 14% EDTA overnight and are then embedded in paraffin wax. Sections are then cut, using a standard microtome, along the midline suture to reveal the coronal suture and the region posterior to this suture. […] The total and new bone area (expressed as mm^2), suture thickness (mm), and number of cells lining the bone surface are determined in the section posterior to the sagittal suture. […]
molecule,measurement,value
B1,Calvarial Assay Results- Bone formation,8.50 ± 1.20 mm^2 × 10^−3
